Data from patent publication US20230013227A1, “ARYL-ANILINE AND HETEROARYL-ANILINE COMPOUNDS FOR TREATMENT OF BIRTHMARKS” (NFlection Therapeutics, Inc., priority 2018, published 2023).

By UniProt entry, the sequences of proteins in these tests, tags left out.
UniProt Q02750, whole entry: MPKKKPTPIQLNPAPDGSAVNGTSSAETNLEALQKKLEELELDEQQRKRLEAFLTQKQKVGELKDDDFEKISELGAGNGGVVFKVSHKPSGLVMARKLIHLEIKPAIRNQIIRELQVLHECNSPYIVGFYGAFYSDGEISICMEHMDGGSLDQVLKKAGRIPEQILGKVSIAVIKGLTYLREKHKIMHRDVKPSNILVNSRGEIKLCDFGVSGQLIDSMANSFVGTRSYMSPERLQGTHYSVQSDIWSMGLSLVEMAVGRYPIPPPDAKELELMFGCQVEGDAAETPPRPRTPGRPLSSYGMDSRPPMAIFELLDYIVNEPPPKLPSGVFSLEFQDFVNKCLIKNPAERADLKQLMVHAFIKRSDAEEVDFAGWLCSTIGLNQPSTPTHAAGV

Target: MEK1 (Homo sapiens, UniProt Q02750)
Experiment: MEK Inhibition Assay-1 (Example 2): 33P-ATP, P81 filter-binding kinase assay
Settings: read-out: Assay 1: biochemical MEK IC50, Table 10, compounds of formula (IV)
Method: The following procedure can be used to measure biochemical activity. MEK1 inhibitory activity of compounds were tested using the following procedure. […] Nat Biotechnoi 2011, 29(11), 1039-45.
• Reaction buffer: 20 mM Hepes (pH 7.5), 10 mM MgCl2, 1 mM EGTA, 0.02% Brij35, 0.02 mg/mL BSA, 0.1 mM Na3VO4, 2 mM DTT, 1% DMSO • Enzyme: MEK1, Invitrogen cat #PV3303 • N-terminal His-tagged recombinant human full length protein, expressed in insect cells. Activated in vitro by RAF1. MW=49.2 kDa, GenBank Accession No. NP_002746. • Substrate: 5 μM ERK2 (K52R), • Kinase-dead mutant, (GenBank Accession No. NM_0011949), aa2-358 with N-terminal His6 tag, MW=43.63 kDa, expressed in E. coli.
The substrate was prepared in freshly prepared Reaction Buffer. The kinase was delivered into the substrate solution and gently mixed. Test compounds were delivered in 100% DMSO into the kinase reaction mixture by Acoustic technology (Echo550; nanoliter range), and incubated for 20 min at room temperature. ^33P-ATP was delivered into the reaction mixture to initiate the reaction. The reaction mixture was incubated for 2 hours at room temperature. Kinase activity was detected by P81 filter-binding method.

CC(=O)c1sc(Nc2ccc(I)cc2F)c(C(=O)NOCC2COC2)c1C
IC50: 1000 to 5000 nM
